Target: truncated form of human NaV 1.8 with full channel activity (Homo sapiens, UniProt Q9Y5Y9)
Test: E-VIPR Assay Method A for detecting and measuring Nav inhibition (HEK cells, membrane potential FRET dyes, electrical stimulation)
Format: cell-based
Settings: read-out: Nav 1.8 MedChem Optical Assay EVIPR Assay Method A HS IC50, HEK cells expressing human NaV 1.8, HS (human serum) in compound loading buffer, 11 point dose response, top dose 3 μM, Table 20A
Excerpt: E-VIPR Assay Method A for Detecting and Measuring Nav Inhibition Properties Sodium ion channels are voltage-dependent proteins that can be activated by inducing membrane voltage changes by applying electric fields. The electrical stimulation instrument and methods of use, referred to as E-VIPR, are described in International Publication No. WO 2002/008748 A3 and C.-J. Huang et al. Characterization of voltage-gated sodium channel blockers by electrical stimulation and fluorescence detection of membrane potential, 24 Nature Biotech. 439-46 (2006), both of which are incorporated by reference in their entirety. […] 7) The plate was read on E-VIPR using the current-controlled amplifier to deliver stimulation wave pulses using the following protocol: 1.25 Amps, 2.5 ms pulse width biphasic waveform, 10 Hz for 10 seconds at a scan rate of 200 Hz. […] Data Analysis: Data were analyzed and reported as normalized ratios of emission intensities measured in the 460 nm and 580 nm channels. […] The fluorescence ratio (Rf/Ri) was then calculated and reported as a function of time. […] Responses to the negative (N) and positive (P) controls were calculated as above. […]

Protein sequences, listed by entry. Tags and fused reporters are not part of them. Residues count along the entry.
UniProt Q9Y5Y9, 126-1722 limits assumed: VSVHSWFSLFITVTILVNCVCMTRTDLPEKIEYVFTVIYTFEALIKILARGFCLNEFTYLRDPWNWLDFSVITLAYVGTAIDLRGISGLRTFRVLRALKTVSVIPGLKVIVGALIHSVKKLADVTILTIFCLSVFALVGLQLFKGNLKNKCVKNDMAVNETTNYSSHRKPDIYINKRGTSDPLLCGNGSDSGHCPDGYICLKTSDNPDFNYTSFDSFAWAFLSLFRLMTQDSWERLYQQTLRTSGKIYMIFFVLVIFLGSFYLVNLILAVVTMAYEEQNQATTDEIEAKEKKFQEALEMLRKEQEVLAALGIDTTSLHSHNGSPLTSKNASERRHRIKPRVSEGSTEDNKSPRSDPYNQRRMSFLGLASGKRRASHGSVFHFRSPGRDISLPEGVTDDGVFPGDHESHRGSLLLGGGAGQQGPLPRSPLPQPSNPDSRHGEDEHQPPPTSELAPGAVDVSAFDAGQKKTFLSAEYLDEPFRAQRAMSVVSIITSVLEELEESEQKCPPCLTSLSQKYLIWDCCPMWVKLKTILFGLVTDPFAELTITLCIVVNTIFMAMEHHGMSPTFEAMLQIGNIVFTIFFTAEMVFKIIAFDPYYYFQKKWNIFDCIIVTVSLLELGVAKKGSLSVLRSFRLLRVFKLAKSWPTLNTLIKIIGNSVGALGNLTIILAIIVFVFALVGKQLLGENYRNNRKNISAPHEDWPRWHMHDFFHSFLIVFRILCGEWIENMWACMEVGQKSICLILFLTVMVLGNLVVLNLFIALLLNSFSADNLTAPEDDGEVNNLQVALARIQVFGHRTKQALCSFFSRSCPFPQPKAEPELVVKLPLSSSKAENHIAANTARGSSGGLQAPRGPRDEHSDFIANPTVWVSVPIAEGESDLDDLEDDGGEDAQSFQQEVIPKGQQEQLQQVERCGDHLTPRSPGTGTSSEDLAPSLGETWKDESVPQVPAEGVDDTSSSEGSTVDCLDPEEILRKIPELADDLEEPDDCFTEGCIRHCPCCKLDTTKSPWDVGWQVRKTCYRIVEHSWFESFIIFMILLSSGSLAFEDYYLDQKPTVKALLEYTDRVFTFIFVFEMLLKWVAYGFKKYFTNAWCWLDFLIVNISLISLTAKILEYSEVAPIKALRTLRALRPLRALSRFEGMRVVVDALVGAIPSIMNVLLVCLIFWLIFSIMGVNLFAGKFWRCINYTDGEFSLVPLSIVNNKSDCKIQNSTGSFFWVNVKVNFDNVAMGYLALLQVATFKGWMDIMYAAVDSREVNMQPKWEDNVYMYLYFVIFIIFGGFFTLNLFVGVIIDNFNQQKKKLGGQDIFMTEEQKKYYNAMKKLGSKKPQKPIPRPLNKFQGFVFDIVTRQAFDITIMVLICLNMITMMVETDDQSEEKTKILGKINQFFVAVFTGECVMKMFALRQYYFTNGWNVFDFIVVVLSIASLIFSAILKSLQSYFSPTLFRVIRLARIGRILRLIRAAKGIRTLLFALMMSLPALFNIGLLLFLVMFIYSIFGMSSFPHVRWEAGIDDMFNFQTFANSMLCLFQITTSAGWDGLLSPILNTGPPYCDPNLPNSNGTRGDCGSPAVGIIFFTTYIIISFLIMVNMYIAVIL

Molecule `[2H]C([2H])([2H])Oc1c(Oc2ccc(C(F)(F)F)c(OC)c2C(=O)Nc2cc(C(N)=O)ncc2C)ccc(OC(F)(F)F)c1F` has an IC50 of 10 nM.
